The source of these data is US20240122878A1 (published 2024).

Protein sequences, listed by entry. Tags and fused reporters are not part of them.
UniProt P33535, whole entry: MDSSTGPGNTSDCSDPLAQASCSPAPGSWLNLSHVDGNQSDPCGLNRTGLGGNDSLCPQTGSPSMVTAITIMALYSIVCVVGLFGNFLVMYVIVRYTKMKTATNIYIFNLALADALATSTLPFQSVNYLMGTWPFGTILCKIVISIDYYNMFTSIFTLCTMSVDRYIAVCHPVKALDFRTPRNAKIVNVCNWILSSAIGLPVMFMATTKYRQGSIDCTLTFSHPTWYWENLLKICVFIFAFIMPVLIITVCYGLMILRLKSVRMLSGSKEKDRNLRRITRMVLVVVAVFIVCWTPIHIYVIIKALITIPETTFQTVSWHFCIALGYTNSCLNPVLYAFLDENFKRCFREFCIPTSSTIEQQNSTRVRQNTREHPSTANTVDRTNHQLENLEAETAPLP

Data set [1] relates to patients with major depressive disorder. Description: Phase 2a cardiodynamic ECG evaluation (concentration-QTc and by-time point analysis). It is filed as in vivo, human. The settings on record: linear concentration-QTc analysis.
The conditions of data set [2]: 5 mg dose, immediate release, oral; cited from earlier work.
For data set [3], the target named is μ opioid receptors (Rattus norvegicus, UniProt P33535). To be noted: cited from earlier work.

In the case of `CCC(=O)C(C[C@H](C)N(C)C)(c1ccccc1)c1ccccc1` [esmethadone], in data set [1], the “Plasma concentration at which 90% UCI of ΔΔQTcF reaches 10 ms (10 ms Threshold)” value came out at 300 ng/mL. The Cmax (commonly the highest concentration seen after dosing) in data set [2] is 53.3 ng/mL. In data set [3], the “Lower affinity for μ opioid receptors with respect to levomethadone” value is reported as 20 fold.
